Measured affinities in a library of Ab-95 light chain variants

Source: Engelhart et al. 2022 (doi:10.1038/s41597-022-01779-4), MIT Lincoln Laboratory and A-Alpha Bio; data file from the FLAb repository.

The target is the same throughout: PDVDLGDISGINAS, from the HR2 region of SARS-CoV-2 spike.

The variants keep the heavy chain, the linker and the frameworks of Ab-95 (scFv order VH, the linker GGGGSGGGGSGGGGS, VL).
VH: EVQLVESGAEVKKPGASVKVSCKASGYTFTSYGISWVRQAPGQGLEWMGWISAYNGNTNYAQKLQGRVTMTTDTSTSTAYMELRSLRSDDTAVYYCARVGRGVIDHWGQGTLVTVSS
VL: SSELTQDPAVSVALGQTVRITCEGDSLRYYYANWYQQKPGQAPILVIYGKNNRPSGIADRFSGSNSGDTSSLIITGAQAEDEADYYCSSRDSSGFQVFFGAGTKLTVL

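Phage display of a naive human antibody library on the peptide gave the parent. The library (AAYL52) carries one to three amino acid substitutions per variant, with no insertions or deletions. Affinity was read by AlphaSeq, a pooled yeast mating assay with surface-displayed partners. After mating in shaken culture at 30 °C for 16 h, diploids were selected and their barcode pairs sequenced. Read counts were normalised to the haploid input and turned into Kd by a linear fit to BCL2-family pairs of known affinity, for each replicate. The assay was run in three technical replicates.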

The parent's light chain CDRs are EGDSLRYYYAN, GKNNRPS, SSRDSSGFQVF; each variant's own CDRs replace them letter for letter. This list gathers variants with a substitution at R90 (VL, numbered from residue 1). Each Kd is an estimate from the mating assay, the geometric mean of the replicates in which the pair was seen; lower is stronger. An entry "no signal" has no value in the source: the pair was not observed among the diploids in any replicate. This suggests poor binding but is not conclusive. Parent in this assay: reference entry 200 nM, copy in this library 180 nM. Three control strains display no target. For library AAYL52, 28% of the pairings with them gave a signal, with a median of 8.2 µM and one signal in twenty below 800 nM, so weak values seen in few replicates may be background. For each scFv, signals with the empty controls are counted beside the result.

Variant EGDSLRAYYAN | GKNNRPS | SSTDSPGFQVF gave 94 nM (3 of 3 replicates; controls 3 of 9).
Variant EGDSLRYYYAN | GKNNRPF | SSEDSSGFQVE gave 170 nM (3 of 3 replicates; controls 1 of 9).
Variant EGDSLRYYYAN | GKCNRPS | ESHDSSGFQVF gave 4.7 µM (3 of 3 replicates; controls 1 of 9).
Variant EGGSERYYYAN | GKNNRPS | SSHDSSGFQVF gave 3.2 µM (1 of 3 replicates; controls 3 of 9).
Variant EGDSLRYYYAN | GKNNRPS | SSIDSSCFQVY gave no signal (0 of 3 replicates; controls 1 of 9).
Variant EGDSLRYYYAN | GHNNRPS | SSIDSSEFQVF gave no signal (0 of 3 replicates; controls 0 of 9).
Variant EGDSLRYYYAN | GKNNRPS | SSLDSSGFQVA gave 1.1 µM (1 of 3 replicates; controls 1 of 9).
Variant EGDSLRYYYAN | GFNNRPS | SSPNSSGFQVF gave 4.0 µM (2 of 3 replicates; controls 2 of 9).
Variant EGDTLRYYYHN | GKNNRPS | SSSDSSGFQVF gave 9.5 µM (2 of 3 replicates; controls 2 of 9).
Variant EGDSLRYYYAN | GKNNRPS | SSQDRSGFQVF gave 120 nM (3 of 3 replicates; controls 1 of 9).
Variant DGDSLRYYYAN | GKINRPS | SSPDSSGFQVF gave 14 µM (2 of 3 replicates; controls 4 of 9).
Variant EGDCLRYYYAN | CKNNRPS | SSTDSSGFQVF gave no signal (0 of 3 replicates; controls 1 of 9).
Variant EGDSLRYYYAN | GKNNRPS | STHDSSGFEVF gave 1.6 µM (1 of 3 replicates; controls 1 of 9).
Variant EGDSLRGYYAN | GKNNRPS | SSVDSSGFEVF gave 400 nM (3 of 3 replicates; controls 6 of 9).
Variant EGDSLRYYYAY | GKNNRPS | SCMDSSGFQVF gave 7.6 µM (3 of 3 replicates; controls 2 of 9).
Variant EGDSLRNYYAN | GWNNRPS | SSGDSSGFQVF gave 860 nM (3 of 3 replicates; controls 3 of 9).
Variant GGDSLRYYYAN | GKNNRPS | VSVDSSGFQVF gave 530 nM (3 of 3 replicates; controls 7 of 9).
Variant EGDSLRYYYAN | GKNNRPS | SSSDSSGFIVD gave 18 µM (2 of 3 replicates; controls 4 of 9).
Variant EGDSLRYYYAN | GKNNRPE | SSMDSIGFQVF gave 34 nM (3 of 3 replicates; controls 0 of 9).
Variant EGDSLRYYYDN | GKNNRPS | SSSDSSLFQVF gave 16 µM (2 of 3 replicates; controls 4 of 9).
Variant EGDSLRYYYAN | GKNNRPS | SSSWSSGFQAF gave 36 µM (1 of 3 replicates; controls 1 of 9).
Variant EADSLRYYYAN | GKNNRPS | SSSDSSGFQKF gave 3.8 µM (1 of 3 replicates; controls 2 of 9).
Variant EGDSLRYYYAN | GKNNRPS | SSWDSSGFQVF gave 480 nM (3 of 3 replicates; controls 4 of 9).
Variant EGDYLRYYYAN | GKNNRPS | SSFDSSPFQVF gave no signal (0 of 3 replicates; controls 0 of 9).
Variant EGDSPRYYYAN | GKNNRPS | SSLDSSGFQVN gave no signal (0 of 3 replicates; controls 1 of 9).
Variant EGDSLRYYYAN | GKNNRPS | FSIDSSGFQVF gave 350 nM (3 of 3 replicates; controls 1 of 9).
Variant EGDSLRYYYAW | GKNNRPS | SSIDSYGFQVF gave 5.2 µM (2 of 3 replicates; controls 3 of 9).
Variant EGDSLRYYYAN | GKNNRPS | SSWRSSGFQVF gave 19 µM (2 of 3 replicates; controls 1 of 9).
Variant EGDSLRYYYAN | GKNNNPS | SSDDCSGFQVF gave 2.2 µM (2 of 3 replicates; controls 6 of 9).
Variant EGDSLRYYYAN | GKINRPS | SSKDSSGFQPF gave no signal (0 of 3 replicates; controls 0 of 9).
Variant EGDSLRYYYAN | GKNNRYS | SSDPSSGFQVF gave 9.3 µM (2 of 3 replicates; controls 3 of 9).
Variant EGDSLRYYYHN | GKNNRPS | SSQDLSGFQVF gave 7.3 µM (1 of 3 replicates; controls 4 of 9).
Variant KGDSLRYYYAN | GKNNRPS | SSHDSSGFQYF gave 1.3 µM (3 of 3 replicates; controls 2 of 9).
Variant EGDRLRPYYAN | GKNNRPS | SSFDSSGFQVF gave 4.9 µM (3 of 3 replicates; controls 3 of 9).
Variant EGDSLRYYGAN | GKNNRPK | SSHDSSGFQVF gave 540 nM (3 of 3 replicates; controls 0 of 9).
Variant EGDSLRYYYAN | GKNNRPS | SSIDSSGFQFT gave 21 µM (1 of 3 replicates; controls 4 of 9).
Variant EGDALRYYYAN | GDNNRPS | SSVDSSGFQVF gave 92 nM (3 of 3 replicates; controls 4 of 9).
Variant EGDSLRYYYAN | GKNNRPS | SSCDPSGGQVF gave 320 nM (3 of 3 replicates; controls 1 of 9).
Variant EGDSLCYYYAN | GKNNRPA | SSWDSSGFQVF gave 220 nM (3 of 3 replicates; controls 1 of 9).
Variant EGDSLRYYYAN | GKNNRPS | SSEDSSPFQVW gave 1.7 µM (3 of 3 replicates; controls 1 of 9).
Variant EGDSLPYYYAN | GKNPRPS | SSWDSSGFQVF gave 5.5 µM (1 of 3 replicates; controls 3 of 9).
Variant RGDSLRYYYIN | GKNNRPS | SSCDSSGFQVF gave 290 µM (1 of 3 replicates; controls 2 of 9).
Variant KGDSLRYYYAN | GKNNRPS | SSFDSSGFQVF gave 380 nM (2 of 3 replicates; controls 3 of 9).
Variant EGDSLRYYYAN | GKNNGPS | SSADSHGFQVF gave 30 µM (1 of 3 replicates; controls 5 of 9).
Variant PGDSLIYYYAN | GKNNRPS | SSCDSSGFQVF gave 76 µM (1 of 3 replicates; controls 4 of 9).
Variant EHLSLRYYYAN | GKNNRPS | SSHDSSGFQVF gave 1.2 µM (3 of 3 replicates; controls 4 of 9).

The 7 strongest on average among those seen in every replicate, once more:

With EGDSLRYYYAN | GKNNRPE | SSMDSIGFQVF the result was 34 nM (3 of 3 replicates; controls 0 of 9).
With EGDALRYYYAN | GDNNRPS | SSVDSSGFQVF the result was 92 nM (3 of 3 replicates; controls 4 of 9).
With EGDSLRAYYAN | GKNNRPS | SSTDSPGFQVF the result was 94 nM (3 of 3 replicates; controls 3 of 9).
With EGDSLRYYYAN | GKNNRPS | SSQDRSGFQVF the result was 120 nM (3 of 3 replicates; controls 1 of 9).
With EGDSLRYYYAN | GKNNRPF | SSEDSSGFQVE the result was 170 nM (3 of 3 replicates; controls 1 of 9).
With EGDSLCYYYAN | GKNNRPA | SSWDSSGFQVF the result was 220 nM (3 of 3 replicates; controls 1 of 9).
With EGDSLRYYYAN | GKNNRPS | SSCDPSGGQVF the result was 320 nM (3 of 3 replicates; controls 1 of 9).